Patent US20160346368A1

Key:
[1] = molecular target: PVR-CD4TM-GFP (human); experiment: flow cytometry; HEK-293T cells transfected with PVR-CD4TM-GFP; PE anti-human Fc
[2] = molecular target: PVR Q82K variant-CD4TM-GFP (human); experiment: flow cytometry; HEK-293T cells transfected with PVR Q82K variant-CD4TM-GFP; PE anti-human Fc
[3] = molecular target: PVR S72N variant-CD4TM-GFP (human); experiment: flow cytometry; HEK-293T cells transfected with PVR S72N variant-CD4TM-GFP; PE anti-human Fc
[4] = molecular target: PVR Q82K+S72N double variant-CD4TM-GFP (human); experiment: flow cytometry; HEK-293T cells transfected with PVR Q82K+S72N double variant-CD4TM-GFP; PE anti-human Fc

**Q.** Which results are given for “PVRL3-Fc (from UniProt Q9NQS3 58-404) (Fc fusion)”?
**A.** MFI [1]: 219; MFI [2]: 558; MFI [3]: 194; MFI [4]: 355
